Ab-95 light chain CDR variants: yeast mating affinities

Source: Engelhart et al. 2022 (doi:10.1038/s41597-022-01779-4), MIT Lincoln Laboratory and A-Alpha Bio; data file from the FLAb repository.

Target: peptide PDVDLGDISGINAS, taken from heptad repeat 2 (HR2) of SARS-CoV-2 spike.

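Phage display of a naive human antibody library on the peptide gave the parent. Library AAYL52 holds single substitutions and randomly drawn double and triple substitutions in the CDRs. In AlphaSeq, yeast of one mating type display the scFv and yeast of the other type display the target. Binding brings cells together so that they mate, and sequencing counts the barcode pairs among the diploids. The ratio of observed to expected reads was calibrated, replicate by replicate, on BCL2-family standards whose Kd was known from biolayer interferometry. Mating was done three times.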

The variants keep the heavy chain, the linker and the frameworks of Ab-95 (scFv order VH, three GGGGS repeats, VL).
VH: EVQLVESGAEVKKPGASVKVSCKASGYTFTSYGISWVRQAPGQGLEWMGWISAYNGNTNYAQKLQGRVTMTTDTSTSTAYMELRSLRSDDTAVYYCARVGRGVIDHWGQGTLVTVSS
VL: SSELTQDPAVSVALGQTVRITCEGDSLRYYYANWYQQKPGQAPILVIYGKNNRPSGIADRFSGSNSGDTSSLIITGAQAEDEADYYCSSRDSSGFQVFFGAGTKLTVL

Each variant is given by its three light chain CDRs, as the data file delimits them; those of the parent are EGDSLRYYYAN, GKNNRPS, SSRDSSGFQVF. The read-out is the apparent dissociation constant on a log10 scale (nM): the lower, the stronger. The mean shown is taken over the replicates in which the pair was detected. "nd" marks a missing value. The strain was present, yet no cells mated with the target were sequenced in that replicate, which points to weak or no binding. In this assay the parent's reference entry averaged 2.31; its copy inside this library read 2.25.

With EGDSLRYYYAN / GKNNRPS / SRRDSRGFQVF the result was 2.35, 2.91, 4.01 (mean 3.09; controls 3 of 9).
With EGDSLRYYYAN / GKNNRPS / SSRDSVGFCVL the result was 4.12, 3.36, 3.95 (mean 3.81; controls 2 of 9).
With EGDSLRYYYAN / GKNNIPS / SSRDMSGFQVF the result was 4.31, nd, 3.86 (mean 4.09; controls 2 of 9).
With EGDSLRYYYAN / GKNNRPQ / SSRDVSGFQGF the result was 2.54, 2.68, 2.60 (mean 2.60; controls 4 of 9).
With EGDSLRYYYAN / GKNNRPS / WSRDSSGFCVF the result was 3.06, 2.85, 2.90 (mean 2.93; controls 1 of 9).
With EHDILRYYDAN / GKNNRPS / SSRDSSGFQVF the result was 2.37, 3.54, nd (mean 2.96; controls 2 of 9).
With EGDSLRYYHAN / GKNNRPS / SSRDSQEFQVF the result was 3.65, 2.66, 2.49 (mean 2.93; controls 3 of 9).
With IGDSLRFYYAN / GKNNRPS / SSRDSSGVQVF the result was 3.19, 2.78, 2.05 (mean 2.67; controls 4 of 9).
With EGDSWRYYYAN / GKNNRPG / SQRDSSGFQVF the result was nd, nd, nd (controls 2 of 9).
With EGDSLRYYYKN / SKDNRPS / SSRDSSGFQVF the result was nd, 4.44, nd (controls 1 of 9).
With EWDSLRCYYAN / GKNTRPS / SSRDSSGFQVF the result was 4.21, nd, nd (controls 1 of 9).
With EGDVLRYYYAN / GKNNRWS / SSRDSSGFQQF the result was 5.09, 4.97, 4.46 (mean 4.84; controls 2 of 9).
With EEDSLRYWYAN / GKNNRPS / SSRDSSAFQVF the result was 3.83, 4.13, 3.91 (mean 3.96; controls 1 of 9).
With EGDSLRYYYAN / GKNNRES / TSRQSSGFQVF the result was 4.26, nd, 3.71 (mean 3.98; controls 6 of 9).
With EGDSLRYYYAN / GKNNRPL / SSRASIGFQVF the result was 3.44, 4.19, nd (mean 3.82; controls 3 of 9).
With EEDSLRYYYAN / GTNNRPS / SSRCSSGFQVF the result was 5.86, 3.74, nd (mean 4.80; controls 7 of 9).
With FMRSLRYYYAN / GKNNRPS / SSRDSSGFQVF the result was nd, 4.42, nd (controls 4 of 9).
With ESDSLRYYYAN / GWNNRPS / SSRDKSGFQVF the result was 3.55, 3.62, 4.33 (mean 3.83; controls 3 of 9).
With EGDSLRYYYAN / GKNNRPS / GSRDSYIFQVF the result was 3.81, 3.55, nd (mean 3.68; controls 3 of 9).
With EGDWLRYYYAN / GKNNMPS / SSRDSSGFQMF the result was 4.51, nd, 4.10 (mean 4.30; controls 2 of 9).
With EGDSLRYDYAN / GKNNRPS / SSSDSSIFQVF the result was 5.23, 3.25, nd (mean 4.24; controls 0 of 9).
With VGYSLMYYYAN / GKNNRPS / SSRDSSGFQVF the result was 2.75, 3.51, 3.00 (mean 3.08; controls 0 of 9).
With EGDSLRYYVAN / GKNNPPS / SSRDFSGFQVF the result was 4.28, nd, nd (controls 2 of 9).
With EGDSLRYYCAN / GKNHRPD / SSRDSSGFQVF the result was 2.63, 2.45, 2.34 (mean 2.47; controls 3 of 9).
With DGDSLRYYPAN / GKNNRPS / SSRDSSGFQVF the result was 1.43, 1.55, 1.29 (mean 1.42; controls 3 of 9).
With EGDGLRYYYAN / GKNRRPS / SSRDSSGFQVQ the result was 3.60, 3.14, nd (mean 3.37; controls 4 of 9).
With ERISLRYYYAN / GKNNRPS / SSRDSSGFQVF the result was nd, nd, nd (controls 2 of 9).
With EGDRLRYYYAN / GKNNDPS / SSRDSSGFQVF the result was nd, nd, 4.10 (controls 3 of 9).
With EGDSLKHYYAN / GKNNRPS / SSRPSSGFQVF the result was 2.46, 1.88, 1.31 (mean 1.89; controls 5 of 9).
With EGMSHRYYYAN / GKNNRPS / SSRDSSGEQVF the result was 2.82, 4.75, 2.72 (mean 3.43; controls 3 of 9).
With EGWSLRYYYCN / GKCNRPS / SSRDSSGFQVF the result was nd, nd, nd (controls 2 of 9).
With EGDSLRYYYAN / GKNNRPS / SSRDISGFQVC the result was 4.02, 3.90, nd (mean 3.96; controls 4 of 9).
With ENDSLRYYYAN / GPNNRPS / SSRDSSQFQVF the result was nd, 5.83, 4.46 (mean 5.14; controls 4 of 9).
With EGDSLRYYYHN / GKNNAPS / SPRDSSGFQVF the result was 3.71, 4.48, 3.10 (mean 3.76; controls 6 of 9).
With EGDSLRYYYAN / GKNNRKS / SSRKSSGFQVF the result was nd, nd, 4.54 (controls 5 of 9).
With EGDSLGYYYAN / GKSNRPS / SSRDSSGFQEF the result was 5.34, nd, nd (controls 3 of 9).
With EGDSLMYYYAN / GKNNRPS / SSRDSPAFQVF the result was 2.48, 2.60, 2.35 (mean 2.47; controls 3 of 9).
With EGDNLRYYYAN / EKNNRPS / SSRDSSAFQVF the result was 4.81, 4.84, nd (mean 4.82; controls 5 of 9).
With EKDSLRYCYAN / GKNNRPS / SSDDSSGFQVF the result was nd, 4.15, nd (controls 3 of 9).
With EGDSLRYYYAN / GKNNRPS / SSRDIVGFQVL the result was 3.06, 3.54, 3.73 (mean 3.44; controls 3 of 9).
With ETDSLRYYYAN / GDNNRGS / SSRDSSGFQVF the result was 4.09, 3.02, nd (mean 3.55; controls 4 of 9).
With EGDSKRYYYAN / GKNNKPS / SSRDSSGFPVF the result was nd, 5.15, nd (controls 1 of 9).
With EYDRLRYYYAN / GKNNRPS / SSRDSYGFQVF the result was nd, 3.73, nd (controls 2 of 9).
With EGDSLREYYAQ / DKNNRPS / SSRDSSGFQVF the result was 3.58, 3.39, 3.01 (mean 3.33; controls 6 of 9).
With EGDSLRYYYAN / GIDNRPS / SSRDSIGFQVF the result was 5.24, 3.44, nd (mean 4.34; controls 3 of 9).

Nonspecific signal, from three strains lacking the peptide, appeared in 28% of pairings of library AAYL52, centred on 3.91 (5% of these signals below 2.90); values are not corrected for it. For each scFv, signals with the empty controls are counted beside the result.